Test results as given in patent US20180360749A1, “METHODS AND COMPOSITIONS FOR DELIVERY OF MEDICAMENTS TO THE LUNGS” (Paka Pulmonary Pharmaceuticals, priority 2007, published 2018).

Amino acid sequences for entries named in this document (tags omitted). Residues count along the entry.
UniProt P08246, 30-267 limits assumed: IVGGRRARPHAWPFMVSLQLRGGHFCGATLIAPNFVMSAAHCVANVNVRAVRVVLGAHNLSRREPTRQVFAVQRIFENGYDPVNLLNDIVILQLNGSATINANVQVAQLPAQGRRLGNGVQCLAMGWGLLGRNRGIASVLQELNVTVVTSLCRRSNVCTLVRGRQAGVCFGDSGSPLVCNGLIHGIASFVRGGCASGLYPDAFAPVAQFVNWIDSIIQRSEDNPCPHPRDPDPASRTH

Columns and labels:
HNE [1] = molecular target: T1, HNE (Homo sapiens, UniProt P08246); test: Kinetic studies of affinity for HNE; format: biochemical; settings: read-out: affinity for HNE
HNE [2] = molecular target: T1, HNE; test: Bronchoalveolar lavage of the lungs following HNE exposure (lung blood cell level); format: in vivo; settings: mice
Protocol: A total of 14 animals were used in this study. Anesthetized mice received 0.1 ml of solution delivered by a blunt tip catheter to the opening of the trachea and the animals allowed to aspirate the solution into their lungs. All animals were exposed to the treatment for 2 hours and re-anesthetized. Bronchoalveolar lavage of the lungs was performed as described below. […] Target 2 (a potent HNE inhibitor developed by Zeneca in the early 1990s) when given with the HNE, reduced the average blood level in the lungs by 34% to 0.035 grams. Target C (the Zeneca molecule covalently attached to the N-terminus of the first 25 residues of the human surfactant B peptide) when given with the HNE reduced the average blood level in the lungs by 87% to 0.007 grams.
A set of animals was used to determine the optimal concentration of HNE for the study. […] The amount of HNE was reduced to 40 micrograms to maintain a maximal detrimental but survivable effect. The animals exposed to 40 micrograms of HNE were able to survive long enough to perform the complete study. All animals remaining in the complete study were exposed to 40 micrograms of HNE.
Target 2 (the Zeneca molecule) was given in a 70-fold molar excess relative to HNE. In the kinetic studies, Target 2 has 2 nM affinity. Target C (the Zeneca molecule covalently attached to the first 25 residues of the human surfactant peptide B) loses approximately two orders of magnitude of potency as compared to Target 2 in the kinetic studies and thus Target C has approximately 200 nM affinity for HNE. Accordingly, the Target C was given to the animals in a 100 fold molar excess relative to HNE in these studies.
Bronchio-Alveolar lavage (BAL) is performed by 1) anesthetizing the animals; 2) performing a tracheotomy on the animals and cutting open the chest and spreading the ribs to enable full lung expansion; 3) pressurizing lml of PBS buffer solution into the lungs through the tracheotomy catheter; 4) sucking the solution out of the lungs; 5) centrifuging the recovered solution to separate the red blood cell fraction from the liquid fraction; and 6) weighing the red blood cell fraction.

[3] = given with 40 micrograms HNE via trachea, 2 hours exposure, weight of BAL red blood cell fraction, Target 2 70-fold, Target C 100 fold molar excess relative to HNE

CC(C)[C@H](NC(=O)CC(=O)O)C(=O)N1CCCC1C(=O)N[C@H](C(=O)C(F)(F)C(=O)NCc1ccccc1)C(C)C (some centres unmarked)
Ki (HNE [1]): 2 nM
Lung Blood Cell Level Measurements, Mouse Group 4 (HNE [2]; given with 40 micrograms HNE via trachea, 2 hours exposure, weight of BAL red blood cell fraction, Target 2 70-fold molar excess relative to HNE): 0.039 g
Lung Blood Cell Level Measurements, Mouse group 1 (HNE [2]; [3]): 0.03 g
Lung Blood Cell Level Measurements, Mouse group 2 (HNE [2]; [3]): 0.041 g
Lung Blood Cell Level Measurements, Mouse group 3 (HNE [2]; [3]): 0.03 g
Lung Blood Cell Level Measurements, Group mean (HNE [2]; given with 40 micrograms HNE, 2 hours exposure, mean of the mouse groups): 0.035 g
average blood level in the lungs (lung blood cell level by weight) (HNE [2]; given with the HNE, 2 hours exposure): 0.035 grams
reduction of the average blood level in the lungs (HNE [2]; given with the HNE, relative to animals given HNE (0.053 grams)): 34%
